The entries are a selection whose mix differs from that of the whole data set. Some of these compounds have results that are not shown, active ones among them. Activity calls are given as the source filed them.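 How the source made its calls: active means cell count reduction exceeding the screen mean by over 5 SD, scaled to untreated wells per plate (cut at about 78% in these data); inactive means the rest.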
Assay: HUVEC nuclei count loss under TNFa – imaging, Hoechst nuclei count, cytotoxicity control for VCAM1 expression modulator project, primary screen (AID 848);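 further: cells counted after 24 h of TNF alpha exposure following the 1 h pretreatment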
Settings: HUVEC TNFalpha-stimulated, at 2 µM, stronger effect = higher value
In the case of `O=C(OC1CN2CCC1CC2)C(CO)(c1ccccc1)c1ccccc1` (stereo not drawn), the cell count reduction is reported as inactive: 20.3%.
With `CN(C)c1cccc(C(=O)NCC2(N(C)C)CCCCC2)c1` the cell count reduction was inactive: -38.2%.
In the case of `CC(C)N1C(=O)CC2(CCN(CCOC(=O)C(O)(c3ccccc3)c3ccccc3)CC2)C1=O`, the cell count reduction is reported as inactive: -34.9%.
